Laboratory results taken from patent US20260014184A1, “ADENOSINE DERIVATIVES FOR USE IN THE TREATMENT OF NEURODEGENERATIVE DISORDERS AND CANCER” (UNIVERSITY COLLEGE CARDIFF CONSULTANTS LIMITED, priority 2022, published 2026).

Amino acid sequences for entries named in this document (tags omitted). Residues count along the entry.
UniProt Q9BXM7, 78-581: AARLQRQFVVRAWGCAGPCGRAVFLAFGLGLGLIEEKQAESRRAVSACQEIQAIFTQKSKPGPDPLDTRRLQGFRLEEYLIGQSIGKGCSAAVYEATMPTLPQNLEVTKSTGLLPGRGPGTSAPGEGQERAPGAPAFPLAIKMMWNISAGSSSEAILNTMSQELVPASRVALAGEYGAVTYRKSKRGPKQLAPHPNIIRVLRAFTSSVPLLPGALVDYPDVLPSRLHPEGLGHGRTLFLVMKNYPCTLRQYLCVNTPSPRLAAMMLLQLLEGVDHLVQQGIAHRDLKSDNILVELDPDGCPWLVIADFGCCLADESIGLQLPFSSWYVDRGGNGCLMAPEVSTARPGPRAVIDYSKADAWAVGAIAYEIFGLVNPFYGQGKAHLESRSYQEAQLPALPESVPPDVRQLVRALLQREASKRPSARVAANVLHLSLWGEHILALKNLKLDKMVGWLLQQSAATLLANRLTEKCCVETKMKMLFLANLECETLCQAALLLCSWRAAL

Target: T1, PINK1 (Homo sapiens, UniProt Q9BXM7)
T1 construct: HeLa cells, which express PINK1 endogenously; endogenous in cells; host or cells: HeLa cells transiently transfected with parkin
Assay: PINK1 activation in cells judged by parkin Ser65 phosphorylation (parkin-transfected HeLa cells)
Format: cell-based
Settings: 10 μM CCCP, 3 h
Experimental: Both HeLa and parkin-overexpressed HeLa cells were maintained in DMEM high glucose (Gibco), 10% FBS (Sigma-Aldrich) at 37° C. with 5% CO2. For experiments, cells were counted and seeded into a range of culture plates, depending on the experiment, cell counting was done using the Cellometer Auto T4 with TrypanBlue (Gibco). […] Alternatively, HeLa cells were seeded in well plates and then transfected with […] of parkin cDNA using the PEI method once the plated cells reached 60% confluency. After 6 hours, the media was changed. Sub-culturing was done when the cells reached ˜90% confluency.
Cell culture with 70-80% confluency was lysed as follows: cells were washed with Phosphate Buffer Saline (PBS) (Sigma). […]
The cells were scrapped and transferred to the microtube and eventually spun down at 12,000 rpm for 15 minutes at 4° C. […] Protein concentration was measured using Bradford Assay. […]

carbonyl cyanide m-chlorophenyl-hydrazine [CCCP, reference compound]
activation of PINK1 as judged by parkin Ser65 phosphorylation, CCCP control: prominent activation of PINK1
